A short description of this test: inhibitors of TNFa-induced VCAM1 expression, confirmation, imaging, TNFa stimulus, retest and dose response (AID 1013). The note with it: TNFa-stimulated cells, at 2 µM, stronger effect = higher value.

Only a part is listed here, and it is no random draw. The source made the active and inactive calls. The rule behind the calls is not given here.

The text below walks through data of PubChem BioAssay AID1013 (Columbia University Molecular Screening Center, 2008).

A word on the inhibition: it is the relative decrease from the control value, in per cent.

For `O=P(Nc1nccs1)(c1ccccc1)c1ccccc1`, the inhibition was inactive: 11.2%.
